In patent publication US9486546B2, “Methods and compositions for radiohalogen protein labeling” (Genentech, Inc., priority 2012, dated 2016):

Tested on: KPL-4 tumor
Test: Whole-body autoradiography in KPL-4 tumor-bearing mice
Assay type: in vivo
Settings: midline plane autoradiograph; despite NaI blocking doses 24 and 1 h prior to dosing
From the text: In the three-dimensional volume renderings from a coronal perspective (upper), the skeletal images are derived from the X-ray (anatomical) CT data while the relative levels of radioactivity from the SPECT data are indicated in a false-color scale. Tumor-to-blood (T:B) ratios of radioactive uptake are shown. Post-mortem cryosection images from a sagittal perspective (lower) were acquired from the same mice as in the upper panel. False-colored phosphorimages (left) and digital photographs (right) are shown for each mouse in the tumoral plane. Tissues are labeled as tumor (T), liver (L) and kidney (K).
Whole-body localization of radioactivity in KPL-4 tumor-bearing mice was determined by autoradiography (FIG. 15, lower). Digital photographs of the sagittal cryosections allow anatomical coregistration. The same rank order of relative tumor uptake (upper panel) was qualitatively observed: ^111In-DOTA>[^125I]I6 (LC-V205C)>[^125I]6 (HC-A114C)>[^125I]6 (Fc-S396C)>^125I (tyrosine-modified). Elevated renal uptake, especially for the Fc variant of ^125I-6-trastuzumab, was evident by both SPECT and autoradiography and recapitulated the data obtained by organ harvest in the plasma pharmacokinetic study of FIG. 13 and biodistribution of FIG. 14. […]

With “^125I-trastuzumab: trastuzumab radiolabeled by traditional means, through its tyrosine residues, with 125I by the indirect Chizzonite (Iodogen) method” the “Thyroid gland uptake of radioactivity” value was “strikingly high uptake of radioactivity in the thyroid gland”.
